The entries are a selection whose mix differs from that of the whole data set. Calls of active or inactive are those of the source. Cut-off read from the data, not from the text of the source: active = inhibition above about 16% (passing the limit was not always enough); inactive = the rest.
Biological target: Neuropeptides B/W receptor type 1 (Homo sapiens) (UniProt P48145)
Experiment: blockers of human neuropeptide B/W receptor 1 – cell-based, fluorescence, single concentration, primary screen (AID 1861);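 note: cells stimulated with the agonist NPW; 0% = agonist with vehicle and 100% = vehicle without agonist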
Details: GPR7-expressing cells, fluorescence antagonist assay; at 4.4 µM; stronger effect = higher value

The chains behind the UniProt entries cited, without tags or fusion partners.
UniProt P48145, whole entry: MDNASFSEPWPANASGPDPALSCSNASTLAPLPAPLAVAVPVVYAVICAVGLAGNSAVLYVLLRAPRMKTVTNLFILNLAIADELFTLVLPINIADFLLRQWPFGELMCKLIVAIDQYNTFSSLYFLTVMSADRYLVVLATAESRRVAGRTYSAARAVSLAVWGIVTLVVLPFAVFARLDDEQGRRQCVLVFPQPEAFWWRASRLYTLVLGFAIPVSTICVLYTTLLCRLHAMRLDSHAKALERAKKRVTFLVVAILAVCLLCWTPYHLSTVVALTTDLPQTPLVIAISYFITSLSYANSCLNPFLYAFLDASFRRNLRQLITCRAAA

Q: With `CP(=O)(Oc1ccccc1)OC(c1ccccc1)C(F)(F)F` (centres undefined) as the compound, how does the inhibition read?
A: inactive: -20.4%

Q: Which inhibition does the source give for `CP(=O)(Nc1ccc(SC(F)(F)F)cc1)Oc1ccc(Cl)cc1` (centres undefined) here?
A: inactive: -3.19%

Q: Which inhibition does the source give for `Cc1cccc(C)c1OP(C)(=O)Nc1ccc(SC(F)(F)F)cc1` (centres undefined) here?
A: inactive: -1.51%

Q: Which inhibition does the source give for `Cc1cc(C)cc(OP(C)(=O)Nc2ccc(SC(F)(F)F)cc2)c1` (centres undefined) here?
A: inactive: -2.7%

Q: How did the inhibition turn out when `CCc1ccc(OP(C)(=O)N2CCN(c3ccc([N+](=O)[O-])cc3)CC2)cc1` (centres undefined) was run?
A: inactive: -0.78%

Q: With `CP(=O)(NC(=O)Nc1ccccc1)Oc1ccccc1` (centres undefined) as the compound, how does the inhibition read?
A: inactive: -13.3%

Q: `CCOP(C)(=S)SCC(=O)NC(C)C(=O)O` (centres undefined) was tested. Which inhibition did it give?
A: inactive: 7.68%

Q: How did the inhibition turn out when `CCOC(=O)c1ccc(NP(C)(=O)Oc2ccc(OC)cc2)cc1` (centres undefined) was run?
A: inactive: -0.89%

Q: Which inhibition does the source give for `CP(=O)(Nc1ccccn1)Oc1ccc(Cl)cc1` (centres undefined) here?
A: inactive: -7.5%

Q: How did the inhibition turn out when `CP(=S)(Nn1cnnc1)Oc1ccccc1` (centres undefined) was run?
A: inactive: -11.6%

Q: Which inhibition does the source give for `COc1ccccc1OP(C)(=O)Nc1ccccc1` (centres undefined) here?
A: inactive: -9.13%

Q: How did the inhibition turn out when `CP(=O)(Nc1ccccc1Br)Oc1ccccc1` (centres undefined) was run?
A: inactive: -2.36%

Q: For `Cc1cccc(C)c1OP(C)(N)=O` (centres undefined), which inhibition is on record?
A: inactive: -3.89%

Q: Which inhibition does the source give for `CC(C)(C)c1ccc(OP(C)(=O)Nc2ccc(SC(F)(F)F)cc2)cc1` (centres undefined) here?
A: inactive: -4.13%

Q: Which inhibition does the source give for `O=[N+]([O-])c1ccc2c(c1)C=Nc1ccccc1O2` here?
A: inactive: -12.4%

Q: With `CCOC(=O)c1ccc(NP(C)(=O)Oc2ccccc2)cc1` (centres undefined) as the compound, how does the inhibition read?
A: inactive: -13.1%

Q: For `Cc1ccc(NP(C)(=O)Oc2ccccc2)c(C)c1` (centres undefined), which inhibition is on record?
A: inactive: -5.4%

Q: `COc1ccccc1OP(C)(=O)Nc1ccc(C)cc1` (centres undefined) was tested. Which inhibition did it give?
A: inactive: -5.63%

Q: With `COc1ccc(OP(C)(=O)Nc2cccc(F)c2)cc1` (centres undefined) as the compound, how does the inhibition read?
A: inactive: 6.87%

Q: `COc1ccccc1OP(C)(=O)Nc1cc(Cl)ccc1C` (centres undefined) was tested. Which inhibition did it give?
A: inactive: 9.75%

Q: For `Cc1cc(C)cc(OP(C)(N)=O)c1` (centres undefined), which inhibition is on record?
A: inactive: -1.83%

Q: With `CCN(CC)CCCOC(=O)C(O)(c1ccccc1)c1ccccc1` as the compound, how does the inhibition read?
A: inactive: 3.3%

Q: Which inhibition does the source give for `COc1ccccc1OP(C)(=O)Nc1cccc(Br)c1` (centres undefined) here?
A: inactive: -4.71%

Q: How did the inhibition turn out when `Cc1cc(C)cc(OP(C)(=O)Nc2ccc(C)cc2C)c1` (centres undefined) was run?
A: inactive: -0.6%

Q: How did the inhibition turn out when `CCOC(=O)c1ccc(NP(C)(=O)Oc2cc(C)cc(C)c2)cc1` (centres undefined) was run?
A: inactive: -0.3%

Q: `CP(=O)(Nc1cccc(Br)c1)Oc1ccccc1` (centres undefined) was tested. Which inhibition did it give?
A: inactive: 3.49%

Q: For `Cc1cc(C)cc(OP(C)(=O)Nc2ccccn2)c1` (centres undefined), which inhibition is on record?
A: inactive: 6.34%

Q: For `Cc1ccc(C)c(NP(C)(=O)Oc2ccccc2)c1` (centres undefined), which inhibition is on record?
A: inactive: -0.13%

Q: With `O=C(O)c1cccc(Nc2c([N+](=O)[O-])cc([N+](=O)[O-])cc2[N+](=O)[O-])c1` as the compound, how does the inhibition read?
A: active: 22.9%

Q: With `CC1=NCCc2c1[nH]c1ccccc21.O=[N+]([O-])c1cc([N+](=O)[O-])c(O)c([N+](=O)[O-])c1` as the compound, how does the inhibition read?
A: inactive: -3.42%

Q: How did the inhibition turn out when `CCOC(=O)C(CC)C1=NC(C)(C)Cc2ccccc21.O=[N+]([O-])c1cc([N+](=O)[O-])c(O)c([N+](=O)[O-])c1` (centres undefined) was run?
A: inactive: -19.9%

Q: How did the inhibition turn out when `O=[N+]([O-])c1cc([N+](=O)[O-])c(Nc2nnnn2CCO)c([N+](=O)[O-])c1` was run?
A: inactive: -10.2%

Q: Which inhibition does the source give for `CN1CCCCC1COC(=O)C1(O)c2ccccc2CCc2ccccc21` (centres undefined) here?
A: inactive: -0.06%

Q: With `COc1ccccc1OP(C)(=O)Nc1c(C)cccc1C` (centres undefined) as the compound, how does the inhibition read?
A: inactive: 2.47%

Q: With `CP(=O)(Nc1ccc(SC(F)(F)F)cc1)Oc1ccccc1` (centres undefined) as the compound, how does the inhibition read?
A: inactive: 0.72%

Q: For `CCCOc1ccc(NP(C)(=O)Oc2ccc(Cl)cc2)cc1` (centres undefined), which inhibition is on record?
A: active: 25.5%

Q: For `O=[N+]([O-])c1cc([N+](=O)[O-])c(-n2nnc3ccccc32)c([N+](=O)[O-])c1`, which inhibition is on record?
A: inactive: -10.8%

Q: How did the inhibition turn out when `Cc1nc2ccc3ccccc3c2s1.O=[N+]([O-])c1cc([N+](=O)[O-])c(O)c([N+](=O)[O-])c1` was run?
A: inactive: 2.98%

Q: With `CP(=O)(Nc1ccc(SC(F)(F)F)cc1)Oc1ccc(F)cc1` (centres undefined) as the compound, how does the inhibition read?
A: inactive: -3.5%

Q: Which inhibition does the source give for `CCOP(C)(=S)SCC(=O)NC(C)(CC)C(=O)O` (centres undefined) here?
A: inactive: -19.8%

Q: Which inhibition does the source give for `CP(=O)(Nc1ccc2c(c1)OCCO2)Oc1ccccc1` (centres undefined) here?
A: inactive: 0.69%

Q: `Cc1ccccc1NP(C)(=O)Nc1ccccc1C` was tested. Which inhibition did it give?
A: inactive: -10.5%

Q: `COc1ccc(OP(C)(=O)Nc2cccc(Br)c2)cc1` (centres undefined) was tested. Which inhibition did it give?
A: inactive: -6.86%

Q: Which inhibition does the source give for `COc1ccc(NP(C)(=O)Oc2ccccc2OC)cc1` (centres undefined) here?
A: inactive: -9.97%

Q: For `CN(C)CCOC(=O)C(O)(c1ccccc1)C1CCCCC1` (centres undefined), which inhibition is on record?
A: inactive: 10.5%

Q: With `O=[N+]([O-])c1cc([N+](=O)[O-])c(NCC2CCS(=O)(=O)C2)c([N+](=O)[O-])c1` (centres undefined) as the compound, how does the inhibition read?
A: inactive: -8.17%

Q: Which inhibition does the source give for `Cc1cc(-c2cccc3ccccc23)c(C)cn1.O=[N+]([O-])c1cc([N+](=O)[O-])c(O)c([N+](=O)[O-])c1` here?
A: inactive: -11.9%

Q: `O=[N+]([O-])c1ccc(OP2(=O)COCCO2)cc1` (centres undefined) was tested. Which inhibition did it give?
A: inactive: 1.03%

Q: How did the inhibition turn out when `COc1ccc(OP(C)(=O)Nc2ccc(SC(F)(F)F)cc2)cc1` (centres undefined) was run?
A: inactive: -9.69%

Q: How did the inhibition turn out when `CCOC(=O)c1ccc(NP(C)(=O)Oc2ccc(F)cc2)cc1` (centres undefined) was run?
A: inactive: -6.31%

Q: How did the inhibition turn out when `CCN(CC)CCCOC(=O)C(O)(c1ccccc1)C1CCCCC1` (centres undefined) was run?
A: inactive: 4.49%

Q: `CCCCCOc1ccc(NP(C)(=O)Oc2ccc(Cl)cc2Cl)cc1` (centres undefined) was tested. Which inhibition did it give?
A: inactive: 17.8%

Q: How did the inhibition turn out when `O=[N+]([O-])c1cc([N+](=O)[O-])c(OC2CCCCC2O)c([N+](=O)[O-])c1` (centres undefined) was run?
A: inactive: -20.4%

Q: For `CP(=O)(Nc1ccccc1)Oc1ccc(F)cc1` (centres undefined), which inhibition is on record?
A: inactive: -12.6%

Q: With `CC(C)c1ccc(OP(C)(=O)Nc2ccc(SC(F)(F)F)cc2)cc1` (centres undefined) as the compound, how does the inhibition read?
A: inactive: -6.66%

Q: `CP(=O)(Nc1ccccc1F)Oc1ccccc1` (centres undefined) was tested. Which inhibition did it give?
A: inactive: -1.59%

Q: Which inhibition does the source give for `O=C(OCCN1CCN(CCOCc2ccccc2)CC1)C(O)(c1ccccc1)c1ccccc1` here?
A: inactive: 2.99%

Q: How did the inhibition turn out when `O=C(OC1CN2CCC1CC2)c1ccc([N+](=O)[O-])cc1` (centres undefined) was run?
A: inactive: -14.4%

Q: How did the inhibition turn out when `COc1ccccc1OP(C)(=O)Nc1ccc(Br)cc1` (centres undefined) was run?
A: inactive: 3.25%

Q: `CN(C)CCOC(=O)C(O)(c1ccccc1)C1CCCC1` (centres undefined) was tested. Which inhibition did it give?
A: inactive: -13.1%

Q: How did the inhibition turn out when `COc1ccc(OP(C)(=O)Nc2ccccn2)cc1` (centres undefined) was run?
A: inactive: -7.88%

Q: Which inhibition does the source give for `O=[N+]([O-])c1cc([N+](=O)[O-])c(Nc2ccccn2)c([N+](=O)[O-])c1` here?
A: inactive: 1.26%

Q: Which inhibition does the source give for `Cc1c(NP(C)(=O)Oc2ccc(C(C)C)cc2)c(=O)n(-c2ccccc2)n1C` (centres undefined) here?
A: inactive: -12%

Q: For `CCc1ccc(OP(C)(=O)O)cc1`, which inhibition is on record?
A: inactive: -4.04%

Q: With `COc1ccccc1OP(C)(=O)Nc1ccc(C)cc1C` (centres undefined) as the compound, how does the inhibition read?
A: inactive: -7.84%

Q: With `CP(=O)(Nc1ccccn1)Oc1ccccc1` (centres undefined) as the compound, how does the inhibition read?
A: inactive: -6.65%

Q: With `Cc1cc(C)cc(OP(C)(=O)Nc2cccc(C(F)(F)F)c2)c1` (centres undefined) as the compound, how does the inhibition read?
A: inactive: -5.27%

Q: How did the inhibition turn out when `COc1ccc(OP(C)(=O)Nc2ccccc2Br)cc1` (centres undefined) was run?
A: inactive: -2.46%

Q: How did the inhibition turn out when `COc1ccccc1OP(C)(=O)Nc1ccc(C)c(C)c1` (centres undefined) was run?
A: inactive: -11.6%

Q: Which inhibition does the source give for `Cc1nc2ccc3ccccc3c2o1.O=[N+]([O-])c1cc([N+](=O)[O-])c(O)c([N+](=O)[O-])c1` here?
A: inactive: -13.1%

Q: Which inhibition does the source give for `CP(=O)(OCCOc1ccccc1)OCCOc1ccccc1` here?
A: inactive: -1.52%

Q: With `CP(=O)(Nc1ccc(Cl)cc1Cl)Oc1ccccc1` (centres undefined) as the compound, how does the inhibition read?
A: inactive: -11.8%

Q: For `CP(=O)(OC12CC3CC(CC(C3)C1)C2)OC12CC3CC(CC(C3)C1)C2`, which inhibition is on record?
A: inactive: 3.44%

Q: For `CCOC(=O)c1ccc(NP(C)(=O)Oc2ccc(Cl)cc2)cc1` (centres undefined), which inhibition is on record?
A: inactive: -2.46%

Q: Which inhibition does the source give for `COc1ccc(OP(C)(=O)Nc2ccc(Br)cc2)cc1` (centres undefined) here?
A: inactive: 0.59%

Q: `CCN(CC)CC(O)COC(=O)C(O)(c1ccccc1)C1CCCCC1` (centres undefined) was tested. Which inhibition did it give?
A: inactive: -2.33%

Q: For `CCc1ccc(OP(C)(=O)Nc2cccnc2)cc1` (centres undefined), which inhibition is on record?
A: inactive: -6.31%

Q: `CP(=O)(Oc1ccccc1)N1CCOC1=O` (centres undefined) was tested. Which inhibition did it give?
A: inactive: 7.57%

Q: With `O=C(OCCCN1CCCC1)C(O)(c1ccccc1)C1CCCCC1` (centres undefined) as the compound, how does the inhibition read?
A: inactive: 3.51%

Q: Which inhibition does the source give for `COc1ccccc1OP(C)(=O)Nc1c(C)n(C)n(-c2ccccc2)c1=O` (centres undefined) here?
A: inactive: -12.1%

Q: `CP(=O)(Nc1ccc(Cl)cc1)Oc1ccc(F)cc1` (centres undefined) was tested. Which inhibition did it give?
A: inactive: -1.77%

Q: How did the inhibition turn out when `CC(C)(C)c1ccc(OP(C)(=O)O)cc1` was run?
A: inactive: -3.04%

Q: Which inhibition does the source give for `COc1ccccc1OP(C)(=O)Nc1ccccc1Br` (centres undefined) here?
A: inactive: 3.62%

Q: How did the inhibition turn out when `CN(C)C(=O)c1c([N+](=O)[O-])cc([N+](=O)[O-])cc1[N+](=O)[O-]` was run?
A: inactive: -5.59%

Source: PubChem BioAssay AID1861 (The Scripps Research Institute Molecular Screening Center, 2009)
